Patent publication EP1923473B1, “Bis-diglycolamides (BISDGA) as new extractants for lanthanides [Ln(III)] and actinides [An(III)] from aqueous high-level wastes” (Universidad Autónoma de Madrid, priority 2006, dated 2008)

Assay: Batch extraction from simulated HLLW from the PUREX process
Type: physicochemical
Conditions: 0.1 mol/L in TPH/1-octanol (90:10)
Protocol: The feed solution used for the extraction tests is a simulated solution of an HLLW from the PUREX process, the composition of which is shown in Table 4. Table 4: Composition of the simulated HLLW-PUREX solution used for the extraction tests
The composition of the HLLW corresponds to a burn-up of 33 GWd/tHM, the generated volume of HLLW being 5000 1/t of fuel. […] Oxalic acid and N-(2-hydroxyethyl)ethylenediaminotriacetate (HEDTA) were also added before the extraction tests.
The concentrations of the stable elements were determined by mass spectrometry with an inductively coupled plasma source (ICP-MS) in a DRC Elan 6100 device of Perkin Elmer Sciex. The aqueous phase was measured directly after the appropriate dilution. The organic phase was analyzed after having mineralized the organic matter by microwave acid digestion and subsequent dilution.
The distribution coefficients were calculated for each element according to section C).
(§1) Extraction experiments were carried out with said simulated HLLW in a pure form and also adding oxalic acid and HEDTA to it.
as §1

With “2-Dioctylcarbamoylmethoxy-N-[3-[3-(2-dioctylcarbamoyl-methoxyacetylamino)propoxy]propyl]acetamide [Compound 18]” the “Distribution coefficients Sr” value (Oxalic acid 0.2 mol/L, HEDTA 0.05 mol/L, TBP 0.5 mol/L) was 0.045, the “Distribution coefficients Sr” value (Oxalic acid 0.2 mol/L, HEDTA 0.05 mol/L, TBP No) was 0.043 and the “Distribution coefficients Sr” value (Oxalic acid 0.3 mol/L, HEDTA 0.05 mol/L, TBP 0.5 mol/L) was 0.047. For the same substance, the “Distribution coefficients Sr” value (Oxalic acid 0.3 mol/L, HEDTA 0.05 mol/L, TBP No) was 0.041, the “Distribution coefficients Sr” value (Oxalic acid No, HEDTA No, TBP 0.5 mol/L) was 0.031 and the “Distribution coefficients Sr” value (Oxalic acid No, HEDTA No, TBP No) was 0.033.
